Experimental data: patent US20240317727A1 (Duke University, priority 2018, published 2024)

Columns and labels:
[1] = molecular target: T1, recombinant HSF1 DNA-binding domain (DBD) (Homo sapiens, UniProt Q00613); experiment: Differential Scanning Fluorimetry (DSF), HSF1 DBD melting temperature; details: read-out: ΔTm
T1 sequence (Q00613 15-120): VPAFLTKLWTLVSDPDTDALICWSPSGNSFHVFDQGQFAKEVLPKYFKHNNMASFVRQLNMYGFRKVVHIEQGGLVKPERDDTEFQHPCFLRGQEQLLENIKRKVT

[2] = molecular target: T2, purified recombinant human HSF1 (HSF1 DNA binding domain) (Homo sapiens, UniProt Q00613); experiment: Melting temperature of HSF1 DBD with HSF1 degrader compounds (Sypro orange); details: read-out: ΔTm (° C.)
T2 sequence (Q00613 15-120): T1 sequence (Q00613 15-120)
Procedure: The melting temperature (ΔTm) for purified recombinant human HSF1 (HSF1 DNA binding domain) was determined in the presence of HSF1 degrader compounds shown in Table 5 and compared to the solvent DMSO. Sypro orange dye was added to the HSF1 DBD (5 micromolar final concentration) in buffer, mixed and distributed to wells in 384 well microtiter plates. HSF1 degrader compound (12.5 micromolar) or DMSO solvent was added to three replicate wells per compound concentration, mixed and plates loaded into a Quant Studio thermnocycler and run on a temperature gradient from 25° C. to 85° C. with increments of 0.5° C. steps. Melting curves were obtained and analyzed using the ThermnoFisher Shift Software 1.4 fitted with a Boltzmann equation to determine the change in melting temperature of the protein in the presence of DMSO as compared to compound. The difference in the melting temperature under these two conditions was assigned as the change in melting temperature of ΔTm.

Work on CN(C)CCc1ccc(NC(=O)Nc2ccc(C#N)cc2)cc1S(=O)(=O)C(F)(F)F [Compound 287, 1-(4-cyanophenyl)-3-(4-(2-(dimethylamino)ethyl)-3-((trifluoromethyl)sulfonyl)phenyl)urea] yielded a ΔTm at 25 µM [1] of 4.7 °C and a ΔTm at 12.5 µM [2] of 1.3 °C.
